{"source": "patent US20140170199A1", "about": "“PARASITICIDAL COMBINATION COMPRISING INDOXACARB AND DELTAMETHRIN” (priority 2011, published 2014)", "test_system": "Ctenocephalides felis fleas", "details": "dogs; for Flea efficacies, arithmetic mean / Flea efficacies, geometric mean: vs negative control", "key": {"[1]": {"details": "Day +2, count ~48 h after treatment or infestation"}, "[2]": {"details": "Day +9, count ~48 h after infestation"}, "[3]": {"details": "Day +30, count ~48 h after infestation"}, "[4]": {"details": "Day +37, count ~48 h after infestation"}, "[5]": {"details": "Day +65, count ~48 h after infestation"}, "[6]": {"details": "Day +93, count ~48 h after infestation"}, "[7]": {"details": "Day +121, count ~48 h after infestation"}, "[8]": {"details": "Day +149, count ~48 h after infestation"}, "[9]": {"details": "Day +163, count ~48 h after infestation"}, "[10]": {"details": "Day +177, count ~48 h after infestation"}}, "note": "Like-named read-outs stand apart in the source and are kept apart here.", "data": [{"smiles": "COC(=O)N(C(=O)N1CO[C@@]2(C(=O)OC)Cc3cc(Cl)ccc3C2=N1)c1ccc(OC(F)(F)F)cc1", "note": "[indoxacarb, (5)-methyl 7-chloro-2,5-dihydro-2-[[(methoxycarbonyl) [4-(trifluoromethoxy)phenyl]amino]carbonyl]indeno[1,2-e][1,3,4]oxadiazine-4a(3H)-carboxylate]", "values": [{"measurement": "Flea efficacies, arithmetic mean", "setting": "Day +2 (immediate)", "result": 99.8, "unit": "%"}, {"measurement": "Flea efficacies, geometric mean", "setting": "Day +2 (immediate)", "result": 99.8, "unit": "%"}, {"measurement": "Flea counts, arithmetic mean", "setting": "[1]", "result": 0.1}, {"measurement": "Flea counts, geometric mean", "setting": "[1]", "result": "0.1^2,4"}, {"measurement": "Flea counts, arithmetic mean", "setting": "[2]", "result": 0.0}, {"measurement": "Flea counts, geometric mean", "setting": "[2]", "result": "0.0^2,4"}, {"measurement": "Flea efficacies, arithmetic mean", "setting": "Day +9", "result": 100.0, "unit": "%"}, {"measurement": "Flea efficacies, geometric mean", "setting": "Day +9", "result": 100.0, "unit": "%"}, {"measurement": "Flea counts, arithmetic mean", "setting": "[3]", "result": 0.0}, {"measurement": "Flea counts, geometric mean", "setting": "[3]", "result": "0.0^2,4"}, {"measurement": "Flea efficacies, arithmetic mean", "setting": "Day +30", "result": 100.0, "unit": "%"}, {"measurement": "Flea efficacies, geometric mean", "setting": "Day +30", "result": 100.0, "unit": "%"}, {"measurement": "Flea counts, arithmetic mean", "setting": "[4]", "result": 0.0}, {"measurement": "Flea counts, geometric mean", "setting": "[4]", "result": "0.0^2,4"}, {"measurement": "Flea efficacies, arithmetic mean", "setting": "Day +37", "result": 100.0, "unit": "%"}, {"measurement": "Flea efficacies, geometric mean", "setting": "Day +37", "result": 100.0, "unit": "%"}, {"measurement": "Flea counts, arithmetic mean", "setting": "[5]", "result": 0.0}, {"measurement": "Flea counts, geometric mean", "setting": "[5]", "result": "0.0^2,4"}, {"measurement": "Flea efficacies, arithmetic mean", "setting": "Day +65", "result": 100.0, "unit": "%"}, {"measurement": "Flea efficacies, geometric mean", "setting": "Day +65", "result": 100.0, "unit": "%"}, {"measurement": "Flea counts, arithmetic mean", "setting": "[6]", "result": 0.0}, {"measurement": "Flea counts, geometric mean", "setting": "[6]", "result": "0.0^2,4"}, {"measurement": "Flea efficacies, arithmetic mean", "setting": "Day +93", "result": 100.0, "unit": "%"}, {"measurement": "Flea efficacies, geometric mean", "setting": "Day +93", "result": 100.0, "unit": "%"}, {"measurement": "Flea counts, arithmetic mean", "setting": "[7]", "result": 0.0}, {"measurement": "Flea counts, geometric mean", "setting": "[7]", "result": "0.0^2,4"}, {"measurement": "Flea efficacies, arithmetic mean", "setting": "Day +121", "result": 100.0, "unit": "%"}, {"measurement": "Flea efficacies, geometric mean", "setting": "Day +121", "result": 100.0, "unit": "%"}, {"measurement": "Flea counts, arithmetic mean", "setting": "[8]", "result": 0.0}, {"measurement": "Flea counts, geometric mean", "setting": "[8]", "result": "0.0^2,4"}, {"measurement": "Flea efficacies, arithmetic mean", "setting": "Day +149", "result": 100.0, "unit": "%"}, {"measurement": "Flea efficacies, geometric mean", "setting": "Day +149", "result": 100.0, "unit": "%"}, {"measurement": "Flea counts, arithmetic mean", "setting": "[9]", "result": 0.0}, {"measurement": "Flea counts, geometric mean", "setting": "[9]", "result": "0.0^2,4"}, {"measurement": "Flea efficacies, arithmetic mean", "setting": "Day +163", "result": 100.0, "unit": "%"}, {"measurement": "Flea efficacies, geometric mean", "setting": "Day +163", "result": 100.0, "unit": "%"}, {"measurement": "Flea counts, arithmetic mean", "setting": "[10]", "result": 0.0}, {"measurement": "Flea counts, geometric mean", "setting": "[10]", "result": "0.0^2,4"}, {"measurement": "Flea efficacies, arithmetic mean", "setting": "Day +177", "result": 100.0, "unit": "%"}, {"measurement": "Flea efficacies, geometric mean", "setting": "Day +177", "result": 100.0, "unit": "%"}]}]}
